Assay results taken from ChEMBL document CHEMBL1139472, “Synthesis of N-{4-[(2,4-diamino-5-methyl-4,7-dihydro-3H-pyrrolo[2,3-d]pyrimidin-6-yl)thio]benzoyl}-L-glutamic acid and N-{4-[(2-amino-4-oxo-5-methyl-4,7-dihydro-3H-pyrrolo[2,3-d]pyrimidin-6-yl)thio]benzoyl}-L-glutamic acid as dual inhibitors of dihydrofolate reductase and thymidylate synthase and …” (J Med Chem, 2005).

Assays:
[1] = target: T1, Bifunctional dihydrofolate reductase-thymidylate synthase (Toxoplasma gondii, UniProt Q07422)
T1 sequence (Q07422 whole entry): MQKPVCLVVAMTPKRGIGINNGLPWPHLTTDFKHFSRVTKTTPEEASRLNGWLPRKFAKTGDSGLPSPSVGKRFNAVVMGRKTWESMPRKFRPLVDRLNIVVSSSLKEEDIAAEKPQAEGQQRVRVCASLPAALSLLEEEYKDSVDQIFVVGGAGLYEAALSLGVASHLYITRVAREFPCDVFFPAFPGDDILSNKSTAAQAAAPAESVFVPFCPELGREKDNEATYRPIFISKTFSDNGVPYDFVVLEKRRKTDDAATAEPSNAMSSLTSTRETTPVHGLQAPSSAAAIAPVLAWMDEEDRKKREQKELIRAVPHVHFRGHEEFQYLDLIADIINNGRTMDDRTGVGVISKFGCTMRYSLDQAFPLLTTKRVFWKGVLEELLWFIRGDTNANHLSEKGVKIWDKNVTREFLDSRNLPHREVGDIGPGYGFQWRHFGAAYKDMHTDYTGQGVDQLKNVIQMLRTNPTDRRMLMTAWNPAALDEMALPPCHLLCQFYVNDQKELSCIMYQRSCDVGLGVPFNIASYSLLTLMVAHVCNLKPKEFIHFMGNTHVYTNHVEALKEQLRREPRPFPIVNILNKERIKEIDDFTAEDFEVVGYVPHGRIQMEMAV

[2] = target: T1, Bifunctional dihydrofolate reductase-thymidylate synthase; remark: listed apart in the source

In the case of `Nc1nc2[nH]cc(CCc3ccc(C(=O)N[C@@H](CCC(=O)O)C(=O)O)cc3)c2c(=O)[nH]1` [PEMETREXED], the IC50 [1] is reported as 460 nM and the IC50 [2] is reported as 2800 nM.

`Cc1nc2ccc(CN(C)c3ccc(C(=O)N[C@@H](CCC(=O)O)C(=O)O)s3)cc2c(=O)[nH]1` [RALTITREXED] showed an IC50 [1] of 2300 nM.
